Laboratory results taken from patent US10014546B2 (priority 2012, dated 2018).

Substance	E1/2, V vs. RHE (pH 9) [V vs. RHE]	E1/2, V vs. RHE (pH 2.6)
sodium potassium titanium (IV) biscatecholate monogluconate [Ti(catecholate)2(gluconate)^2−/3−]	−0.60	–
iron bis-lactate [Fe^III/II(lactate)2]	–	+0.45 V vs. RHE

Like-named read-outs stand apart in the source and are kept apart here.
